# In patent publication US7915223B2, “Antimicrobial agents” (priority 2004, dated 2011):
# Test system: E. coli strain ATCC 35218
# Format: cell-based, Escherichia coli
# Conditions: tenth subculture generation after exposure to sub-lytic concentrations
substance,measurement,value
gentamycin,relative MIC (increase of MIC value),4 fold
